# Values of other authors in US20200129574A1, “AMARANTHUS BLITOIDES WITH VITAMIN D COMPOSITIONS TO ENHANCE VITAMIN D HALF-LIFE AND ACTIVATE VDR IN HUMANS AND METHODS OF USING SAME” (priority 2018, published 2020).
substance,measurement,setting,value
Vitamin D,daily ingestion at which toxicity observed,"adults, long term daily ingestion",25 µg/kg
same,daily ingestion producing acute toxicity,"adults, within two weeks",375 µg/kg
same,dosage at which toxicity has been seen,healthy adults,above 1250 μg/day
